Assay: Plasma pharmacokinetics by HPLC-ECD after IV dose in rhesus monkeys
Details: combined parent + metabolite; infected rhesus

CC1CCC2C(C)C(OCc3ccc(C(=O)O)cc3)OC3OC4(C)CCC1C32OO4.CC1CCC2C(C)C(OCc3ccc(C(=O)O)cc3)OC3OC4(C)CCC1C32OO4.O (stereo not shown) [IV AL, 4-(10′ dihyro-artemisinin-oxymethyl) benzoic acid hemihydrate]
% AUC0–20 / AUC0–∞: 21.4%
